Assay results: ChEMBL document CHEMBL3085645, “Design, synthesis and biological evaluation of phosphorodiamidate prodrugs of antiviral and anticancer nucleosides” (Eur J Med Chem, 2013)

Tested on: CCRF-CEM
Assay: Cytotoxicity against human CEM cells
Type: cell-based

SMILES	CC50
C[C@H](NP(=O)(Nc1ccn([C@H]2CS[C@@H](CO)O2)c(=O)n1)N[C@@H](C)C(=O)OCc1ccccc1)C(=O)OCc1ccccc1	214 µM
C[C@H](NP(=O)(Nc1ccn([C@H]2CS[C@@H](COP(=O)(N[C@@H](C)C(=O)OCc3ccccc3)N[C@@H](C)C(=O)OCc3ccccc3)O2)c(=O)n1)N[C@@H](C)C(=O)OCc1ccccc1)C(=O)OCc1ccccc1	> 250 µM
